Test results from US6344477B1, “Prostaglandin e agonists for treatment of dry eye” (Alcon Manufacturing, Ltd., priority 1998, dated 2002).

Protein sequences, listed by entry. Tags and fused reporters are not part of them. Residues count along the entry.
UniProt P43116, whole entry: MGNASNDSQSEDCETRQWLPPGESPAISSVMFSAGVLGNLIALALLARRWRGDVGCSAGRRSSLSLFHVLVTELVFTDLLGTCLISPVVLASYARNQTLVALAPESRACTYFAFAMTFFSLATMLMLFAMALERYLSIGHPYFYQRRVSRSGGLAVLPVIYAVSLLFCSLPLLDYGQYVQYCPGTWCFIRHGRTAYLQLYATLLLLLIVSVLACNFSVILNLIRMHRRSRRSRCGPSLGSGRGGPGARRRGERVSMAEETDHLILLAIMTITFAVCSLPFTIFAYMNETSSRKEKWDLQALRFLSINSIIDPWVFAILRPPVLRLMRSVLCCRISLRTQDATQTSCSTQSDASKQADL
UniProt A0A061ILF4, 1-488: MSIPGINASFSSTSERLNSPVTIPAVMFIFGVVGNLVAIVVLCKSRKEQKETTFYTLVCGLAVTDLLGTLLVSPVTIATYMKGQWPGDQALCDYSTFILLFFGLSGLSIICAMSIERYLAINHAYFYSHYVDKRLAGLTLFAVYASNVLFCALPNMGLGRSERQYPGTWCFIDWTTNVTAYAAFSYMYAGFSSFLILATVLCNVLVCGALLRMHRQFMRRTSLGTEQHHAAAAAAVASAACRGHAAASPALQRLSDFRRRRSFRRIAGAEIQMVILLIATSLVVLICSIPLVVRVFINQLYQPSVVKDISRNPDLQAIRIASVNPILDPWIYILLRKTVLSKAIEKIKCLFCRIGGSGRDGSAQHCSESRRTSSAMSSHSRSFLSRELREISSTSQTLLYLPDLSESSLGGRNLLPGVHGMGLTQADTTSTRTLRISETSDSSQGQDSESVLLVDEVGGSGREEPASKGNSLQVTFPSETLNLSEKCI

Assays:
[1] = biological target: EP2 Receptors in Immortalized Human Non-pigmented Ciliary Epithelial Cells (Homo sapiens, UniProt P43116); assay: cAMP production (radioimmunoassay) via EP2 receptors in immortalized human non-pigmented ciliary epithelial cells
[2] = biological target: EP4 Receptors in Chinese Hamster Ovary Cells (Cricetulus griseus, UniProt A0A061ILF4); assay: cAMP production (radioimmunoassay) via EP4 receptors in Chinese hamster ovary cells; conditions: read-out: Potency (EC50, nM) at EP4 Receptors in Chinese Hamster Ovary Cells, 15-60 min at 23° C.

## O=C(O)COC/C=C\C[C@@H]1[C@@H](/C=C/[C@@H](O)C2CCCCC2)[C@H](O)C[C@H]1Cl
[1]; comparison of EC50 at EP2 and EP4 receptors
  Receptor selectivity EP2 versus EP4: more EP2-selective
[1]; read-out: Potency (EC50, nM) at EP2 Receptors in Immortalized Human Non-pigmented Ciliary Epithelial Cells, cAMP production, 15-60 min at 23° C.
  EC50: 700 nM
[2]
  EC50: > 10000 nM
